Screening data: PubChem BioAssay, National Center for Advancing Translational Sciences (NCATS)
A selection: hits, their analogues and other compounds. The true share with any hit is near 0.59%.
Rango-impB inh – prevents formation of the Rango-importin beta complex | Rango CFP/YFP FRET sensor + importin beta, 45 min | AID 540263 | actives 0.031% (n = 340,000) | Potency, µM (top dose mostly 92.2 µM), for inactives: at the highest dose inhibition of complex formation;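 also: potency is read from the fitted curve at half-maximal effect; 0% = DMSO wells and 100% = buffer wells lacking importin beta; nearly all actives have a fitted effect of over 15% in size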
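Inhibition scored from the CFP 486 nm/YFP 530 nm FRET ratio 45 min after adding 0.125 microM importin beta to 50 nM Rango biosensor preincubated 5 min with compound (room temperature, PBS with DTT, Tween-20, BSA). No-importin wells as positive control.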
Rango dissoc inh – inhibition of RanGTP-driven Rango-importin beta dissociation; O95149+P62826; Biochemical FRET Rango-importin beta, RanGTP-induced dissociation; Potency, µM (highest dose often 46.1 µM), for inactives: at the highest dose activity change, negative = inhibition; actives 0.071% (n = 340,000); AID 540253; also: potency is read from the fitted curve at half-maximal effect; % of control where 0% means no effect; nearly all actives have a fitted effect of over 45% in size
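Quantitative HTS using a FRET biosensor: 0.1 uM Rango, 0.25 uM importin beta, 0.6 uM Ran, 2 mM GTP, 0.2 uM RCC1 final, PBS with DTT, Tween-20 and BSA. Post-read taken 45 min after Ran addition.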
uPA generation – cell surface uPA generation inhibition; cell surface uPA generation assay, qHTS; Potency, µM (titrated, usually from 38.3 µM), for inactives: top-dose activity change, negative = inhibition, hits mostly inhibitors; actives 0.31% (n = 330,000); AID 540303; active = well fitted inhibition curve with a large enough effect; inconclusive = small, poorly fitted or top-dose-only effect; inactive = no such curve, though single readings can be large or run the other way; tested in mouse RAW 264.7 cells; also: potency is read from the fitted curve at half-maximal effect; % is scaled to controls: 0 for no effect and ±100 for the full control effect; nearly all actives have a fitted effect of over 55% in size
a7 integrin act – activators of alpha7 integrin expression for muscular dystrophy | alpha7betagal myoblasts, beta-gal FDG fluorescence, 48 h | Potency, µM (series often up to 38.3 µM), for the others: at the highest dose activation, most hits filed as activators | actives 0.064% (n = 350,000) | AID 624291; active = well fitted activation curve with a large enough effect; inconclusive = small, poorly fitted or top-dose-only effect; inactive = no such curve, though single readings can be large or run the other way;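 also: potency is read from the fitted curve at half-maximal effect; 100% = response of the positive control SU9516; nearly all actives have a fitted effect of over 60% in size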
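Alpha7betagal+/- myoblasts (passage 13) were plated 16-24 hr, then exposed to compounds (1:260 dilution of DMSO stock) for 48 hours at 37C. After MPER lysis, β-galactosidase reporter activity was read as FDG fluorescence (ex 480/em 540) after 30 minutes.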
Giardia kill – kills Giardia lamblia. Giardia lamblia trophozoite viability. activity change, % at 7.66 µM, hits read low. actives 0.15% (n = 340,000). AID 540267; in the data active = activity change below about -80%; inconclusive = between about -30% and that limit;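 also: parasites exposed to compound for two days anaerobically before the ATP read; % is scaled to controls: 0 for no effect and ±100 for the full control effect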
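Media and compound were dispensed first, then trophozoites at 100 cells/well; plates sat 48 hrs at 37 deg C without oxygen before ATP luminescence reagent was added and read after 15-30 min at room temperature.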
The depositor's hits bear a star. Unless noted, calls follow the shape of the full dose curve.

`CC(=O)c1ccc(-c2ccc(C(=O)NCC(c3ccc(F)cc3)N3CCOCC3)o2)cc1` (configuration not stated) gave Rango-impB inh -3%, Rango dissoc inh -2%, uPA generation 4%, a7 integrin act 9% and Giardia kill 1.
For Cc1ccc(-n2nnnc2CNC(=O)c2ccc([N+](=O)[O-])o2)cc1C the results were Rango-impB inh 1%, Rango dissoc inh -12%, uPA generation inconclusive, a7 integrin act -51% and Giardia kill inconclusive.
Screening O=C(NCC(c1ccc(F)cc1)N1CCOCC1)c1ccc([N+](=O)[O-])o1 (configuration not stated) returned Rango-impB inh 0%, Rango dissoc inh -9%, uPA generation -16%, a7 integrin act -39% and Giardia kill -101*.
`O=C(NCc1nnnn1-c1ccc(F)cc1)c1ccc([N+](=O)[O-])o1` gave Rango-impB inh -3%, Rango dissoc inh -4%, uPA generation -11%, a7 integrin act -15% and Giardia kill -95*.
For O=C(NCCCc1ccccc1)c1cc(COc2ccc(F)cc2Cl)on1 the results were Rango-impB inh -3%, Rango dissoc inh -14%, uPA generation 2%, a7 integrin act -32% and Giardia kill -18.
Screening C#CCOCCOCCOCCNc1nc(N2CCN(C(=O)CCCCCCCCCCNC(=O)[C@H](CCCCN)n3cc(CCO)nn3)CC2)nc(N2CCN(C(=O)CCCCCCCCCCNC(=O)[C@H](CCCN=C(N)N)n3cc(C[C@@H](C)CC)nn3)CC2)n1 returned Rango-impB inh 65µM*, Rango dissoc inh inconclusive, uPA generation inconclusive, a7 integrin act 0% and Giardia kill -5.
`C#CCOCCOCCOCCNc1nc(N2CCN(C(=O)[C@H](CCCCN)n3cc([C@@H](N)C(C)CC)nn3)CC2)nc(N2CCN(C(=O)[C@H](CCCCN)n3cc([C@@H](N)CC(C)C)nn3)CC2)n1` (some centres not stated) gave Rango-impB inh 52µM*, Rango dissoc inh 2%, uPA generation -4%, a7 integrin act -21% and Giardia kill -8.
Screening C#CCOCCOCCOCCNc1nc(N2CCN(C(=O)[C@H](CCCN=C(N)N)n3cc(C(N)[C@H](C)CC)nn3)CC2)nc(N2CCN(C(=O)[C@H](CCCN=C(N)N)n3cc(C(N)[C@@H](C)CC)nn3)CC2)n1 (some centres not stated) returned Rango-impB inh 65µM*, Rango dissoc inh inconclusive, uPA generation 0%, a7 integrin act 34% and Giardia kill 3.
`O=C(Cc1c(Cl)cccc1Cl)OCC(=O)c1ccc[nH]1` gave a7 integrin act -10%.
Nc1nc(OCC2CCCCC2)c2[nH]cnc2n1 was read as Rango-impB inh 2%, Rango dissoc inh -22%, uPA generation inconclusive and Giardia kill 3.

The final three entries of the section before lead into the next.
Screening C#CCOCCOCCOCCNc1nc(N2CCN(C(=O)[C@H](CCCN=C(N)N)n3cc(C(N)[C@H](C)CC)nn3)CC2)nc(N2CCN(C(=O)[C@H](CCCN=C(N)N)n3cc(C(N)[C@@H](C)CC)nn3)CC2)n1 (some centres not stated) returned Rango-impB inh 65µM*, Rango dissoc inh inconclusive, uPA generation 0%, a7 integrin act 34% and Giardia kill 3.
`O=C(Cc1c(Cl)cccc1Cl)OCC(=O)c1ccc[nH]1` gave a7 integrin act -10%.
Nc1nc(OCC2CCCCC2)c2[nH]cnc2n1 was read as Rango-impB inh 2%, Rango dissoc inh -22%, uPA generation inconclusive and Giardia kill 3.
COc1ccc(C2/C=C\CN(C(=O)c3ccc(C)cc3)C(C)C(=O)N2Cc2ccc(F)cc2)cc1 (configuration not stated) was read as Giardia kill 15.
For COc1ccc(F)cc1C1=CC(=O)C[C@H](c2ccc3c(c2)OCO3)C1 the results were Rango-impB inh 5%, Rango dissoc inh 5%, uPA generation inconclusive, a7 integrin act -21% and Giardia kill -13.
Screening Cc1cccc(CN2C(=O)N/C(=C/c3cc(C)n(-c4ccccn4)c3C)C2=O)c1 returned Rango-impB inh inconclusive, Rango dissoc inh 5.2µM*, uPA generation 5%, a7 integrin act -2% and Giardia kill inconclusive.
For COc1cc(-c2noc(C)c2C#Cc2ccccn2)cc(OC)c1OC the results were Rango-impB inh 4%, Rango dissoc inh -8%, uPA generation 0.35µM*, a7 integrin act -19% and Giardia kill -2.
Screening COc1cc(-c2noc(C)c2C#Cc2ccc(N)cc2)cc(OC)c1OC returned Rango-impB inh -2%, Rango dissoc inh -3%, uPA generation inconclusive, a7 integrin act -16% and Giardia kill 0.
Screening C[C@@H]1CN([C@H](C)CO)C(=O)CCCn2nncc2CO[C@H]1CN(C)C(=O)Nc1ccc(N2CCN(C)CC2)cc1 returned a7 integrin act 7%.
`Cc1ncc(CO)c(/C=N/NC(=O)c2cc3c(s2)CCCC3)c1O` gave Rango-impB inh inconclusive, Rango dissoc inh inconclusive, uPA generation 6.3µM*, a7 integrin act -29% and Giardia kill inconclusive.
`C=CC[n+]1c(-c2ccc(C)cc2)csc1Nc1ccc(NC(C)=O)cc1` gave Rango-impB inh 5%, Rango dissoc inh -12%, uPA generation 7.1µM*, a7 integrin act -7% and Giardia kill 8.
For C=CC[n+]1c(-c2ccc(OC)cc2)csc1NNC(=O)Nc1ccccc1 the results were Rango-impB inh inconclusive, Rango dissoc inh -23%, uPA generation -1%, a7 integrin act -44% and Giardia kill 21.
Screening CCOc1cc(C2Nc3ccccc3C(=O)N2Cc2ccco2)ccc1O (configuration not stated) returned Giardia kill 7.
For Cc1cccc2cc(CN(Cc3ccccc3)Cc3nnnn3Cc3ccccc3)c(=O)[nH]c12 the results were Giardia kill -24.
Screening CCC(C)(C)c1ccc(OCCCC[n+]2ccccc2)c(C(C)(C)CC)c1 returned Rango-impB inh 6%, Rango dissoc inh 9%, uPA generation 11µM*, a7 integrin act inconclusive and Giardia kill 4.
Screening CCCCCc1ccc(OCCCC[n+]2ccccc2)c(CCCCC)c1 returned Rango-impB inh -2%, Rango dissoc inh 0%, uPA generation -12%, a7 integrin act -69% and Giardia kill -5.
Screening N#C/C(=C\c1cc(Cl)cc(Cl)c1O)C(=O)NC1CCCCC1 returned Rango-impB inh inconclusive, Rango dissoc inh 6.5µM*, a7 integrin act 9% and Giardia kill -8.
`CN1CCS/C1=C\C=C1/SC(=S)N(CC(=O)O)C1=O` gave Rango-impB inh 58µM*, Rango dissoc inh inconclusive, uPA generation -4%, a7 integrin act 6% and Giardia kill -19.
`CN1/C(=C\C=C2/SC(=S)N(CC(=O)O)C2=O)C(C)(C)c2ccccc21` gave Rango-impB inh 23µM*, Rango dissoc inh inconclusive, uPA generation 0%, a7 integrin act -53% and Giardia kill 18.
`COc1ccc(COCC(O)CN2CCN(S(=O)(=O)c3ccc(C(C)C)cc3)CC2)cc1` (configuration not stated) gave Rango-impB inh 1%, Rango dissoc inh -1%, uPA generation 0%, a7 integrin act 0% and Giardia kill -4.
Screening Cc1cc2ccccn2c1C(=O)c1cccc([N+](=O)[O-])c1 returned Rango-impB inh -1%, Rango dissoc inh 7%, uPA generation 1%, a7 integrin act -20% and Giardia kill 5.
